The results in this text go back to ChEMBL document CHEMBL2086387 (ACS Med Chem Lett, 2012).

By UniProt entry, the sequences of proteins in these tests, tags left out.
UniProt P0DMS8, whole entry: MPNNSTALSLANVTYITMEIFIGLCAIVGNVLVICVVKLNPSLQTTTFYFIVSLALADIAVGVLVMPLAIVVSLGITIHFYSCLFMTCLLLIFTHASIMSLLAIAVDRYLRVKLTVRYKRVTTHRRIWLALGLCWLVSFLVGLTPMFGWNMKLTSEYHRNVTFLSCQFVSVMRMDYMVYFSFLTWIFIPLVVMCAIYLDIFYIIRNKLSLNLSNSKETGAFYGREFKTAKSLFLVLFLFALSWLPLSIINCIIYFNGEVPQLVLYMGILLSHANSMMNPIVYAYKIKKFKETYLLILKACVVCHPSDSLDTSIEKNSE

In the assay the target is Adenosine receptor A3 (Homo sapiens, UniProt P0DMS8). Briefly: Displacement of [3H]I-AB-MECA from human recombinant adenosine A3 receptor expressed in CHO cells after 60 mins by liquid scintillation counting. In kind it is cell-based. Put shortly:
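Competition binding with standard 3H- or 125I-labeled high-affinity nucleoside radioligands at the human receptor subtype; Ki derived from binding curves. Means ± standard error, n = 3 unless noted (n = 2 where flagged).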
Background: Loss of bound radioactivity is the signal in a displacement assay; it reports binding, not function.

The structures appear in SMILES notation. pKi: −log10 of the molar value.

With `O[C@@H]1[C@H](O)[C@@H]2C[C@@H]2[C@H]1n1cnc2c(NCCc3ccccc3)nc(C#Cc3ccccc3Cl)nc21`, the pKi was 7.43.
The value for `O[C@@H]1[C@H](O)[C@@H]2C[C@@H]2[C@H]1n1cnc2c(NCCc3ccccc3)nc(C#Cc3ccccc3)nc21` was 7.70.

What is called pKi is −log10 of the Ki, conventionally taken in molar units.
